Hits are enriched below; roughly 16% of the tested compounds scored in any of these assays.
uPA generation – inhibitors of cell surface uPA generation; cell surface uPA generation assay, qHTS; Potency, µM (highest dose often 38.3 µM), hits mostly inhibitors; 330,000 compounds, 0.31% hits; active = well fitted inhibition curve with a large enough effect; inconclusive = small, poorly fitted or top-dose-only effect; inactive = no such curve, though single readings can be large or run the other way; tested in mouse RAW 264.7 cells; note: nearly all actives have a fitted effect of over 55% in size
miR-21 reporter – miR-21 reporter, rising signal | AID 2288 | HeLa miR-21 FLuc reporter, luciferase, 48 h | 340,000 tested, under 10 active | Potency, µM (doses to about 38.3 µM); active = well fitted rising curve with a large enough effect; inconclusive = small, poorly fitted or top-dose-only effect; inactive = no such curve, though single readings can be large or run the other way;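 note: miR-21 action dims this reporter so a rising signal means less miR-21 action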
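HeLa cells stably expressing CMV-driven firefly luciferase with a downstream miR-21 binding sequence, endogenously expressing miR-21, were treated with titrations (up to about 40uM final) for 48 hours at 37 degree Celsius. Luciferase luminescence was read after lysis.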
DT40 TDP1 no CPT – qHTS for Inhibitors of human tyrosyl-DNA phosphodiesterase 1 (TDP1): qHTS in cells in absence of CPT | Potency, µM (highest dose often 46.2 µM), most hits filed as inhibitors | 420,000 compounds, 15% hits | DT40 Tdp1-/- hTDP1 cells, no CPT, ATP luminescence, 48 h; note: nearly all actives have a fitted effect of over 55% in size
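A cellular qHTS used chicken DT40 cells lacking endogenous Tdp1 but carrying stably transfected human TDP1. Compounds were applied without camptothecin, and cell growth kinetics were judged by ATP-dependent luminescence after ≥48 hr.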
TDP1 cell CPT – growth inhibition of DT40 Tdp1-/-;hTDP1 cells with camptothecin (screen for TDP1 inhibitors); Potency, µM (doses to about 46.2 µM), usual class: inhibitors; chicken DT40 Tdp1-/-;hTDP1 cells + 20 nM CPT, ATP luminescence, 48 h; 420,000 compounds, 12% hits; AID 686979; note: nearly all actives have a fitted effect of over 55% in size
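Cell growth measured by CellTiter-Glo luminescence after a minimum 48 h, 37 C compound exposure with 20 nM CPT in Tdp1-knockout DT40 cells stably expressing hTDP1, seeded 400/well; qHTS titration format.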
TDP1 inh – blocks human tyrosyl-DNA phosphodiesterase 1 | Q9NUW8 | recombinant TDP1, AlphaScreen DNA substrate cleavage | Potency, µM (highest dose often 130 µM), usual class: inhibitors | 350,000 compounds, 0.28% hits | AID 485290; note: nearly all actives have a fitted effect of over 40% in size
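E. coli-derived human Tdp1, 1 nM final. Cpd preinc 15 min RT; substrate 15 nM final, 5 min RT; AS bead mix 10 ug/ml final, 10 min RT. Signal loss = tyrosine-FITC cleavage. No-enzyme wells = max signal.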
Hits are given with their value; - = inactive; ? = inconclusive; . = no result; [ ] = remark or other dose. Unless noted, calls come from the whole dose curve; as a rule, active = well fitted curve in the direction sought with a large enough effect; inconclusive = small, poorly fitted or top-dose-only effect, or another doubt; inactive = no such curve, though single readings can be large; an effect the other way counts as inactive or inconclusive.

SMILES | uPA generation | miR-21 reporter | DT40 TDP1 no CPT | TDP1 cell CPT | TDP1 inh
O=C(Cn1c(=O)oc2cc(S(=O)(=O)N3CCCCC3)ccc21)NCc1ccc(Cl)cc1 | . | - | 7.3µM | 9.2µM | -
COc1cccc(CNC(=O)Cn2c(=O)oc3cc(S(=O)(=O)N4CCCC4)ccc32)c1 | . | - | 23µM | ? | -
COc1cccc(CNC(=O)Cn2ccc3cc(S(=O)(=O)N4CCCC4)ccc32)c1 | - | - | ? | ? | -
O=C(Cn1c(=O)oc2cc(S(=O)(=O)N3CCCC3)ccc21)NC1CCCCC1 | - | - | - | - | .
O=C(Cn1c(=O)oc2cc(S(=O)(=O)N3CCCC3)ccc21)N1CCCC1 | - | - | - | - | -
O=C(Cn1c(=O)oc2cc(S(=O)(=O)N3CCCCC3)ccc21)NCc1ccc(F)cc1 | . | ? | 5.8µM | 5.2µM | -
C=CCN1C(=O)S/C(=C/c2ccc(Sc3nc4ccccc4[nH]3)o2)C1=O | - | - | 21µM | 23µM | -
CCOC(=O)C(C)N1C(=O)S/C(=C\c2ccc(-c3ccccc3C(=O)O)o2)C1=O (stereo unspecified) | - | - | - | - | .
CC(C)N1C(=O)S/C(=C/c2ccc(Sc3nc4ccccc4[nH]3)o2)C1=O | - | - | 10µM | 15µM | -
CCN(CC)C(=O)[C@H]1CC(CC(=O)NCc2cccc(C(F)(F)F)c2)C(=O)N2CCc3c([nH]c4ccc(OC)cc34)[C@]12C (stereo partly specified) | - | . | 15µM | 16µM | -
CC(C)N(C(=O)[C@H]1CC(CC(=O)NCc2cccc(C(F)(F)F)c2)C(=O)N2CCc3c([nH]c4ccccc34)[C@]12C)C(C)C (stereo partly specified) | ? | . | 23µM | 18µM | -
CCN(CC)C(=O)[C@H]1C[C@H](CC(=O)NCc2cccc(C(F)(F)F)c2)C(=O)N2CCc3c([nH]c4cc(-c5ccco5)ccc34)[C@]12C | ? | . | ? | ? | -
COc1ccccc1CNC(=O)Cc1csc2nc(-c3ccc(Cl)cc3)cn12 | . | - | ? | ? | -
O=C(Cc1csc2nc(-c3ccc(F)cc3)cn12)NCc1ccccc1 | . | - | ? | 16µM | -
CN(Cc1ccccc1)S(=O)(=O)c1ccc(Cl)c(C(=O)OCC(N)=O)c1 | - | - | - | - | .
O=C(COC(=O)/C=C/c1ccc([N+](=O)[O-])cc1)NCC1CCCCC1 | - | . | - | - | -
N#CSC(c1ccccc1)c1nc2ccccc2[nH]c1=O (stereo unspecified) | - | - | 26µM | 6.5µM | .
Cc1ccc(NC(c2ccccc2)c2nc3ccccc3[nH]c2=O)cc1 (stereo unspecified) | - | - | ? | ? | .
CCC(CO)Oc1cc(NC(=O)c2ccccc2[N+](=O)[O-])c2ncn(C(C)C)c2c1 (stereo unspecified) | - | . | ? | 16µM | -
CCC(CO)Oc1cc(NC(=O)c2ccccc2Cl)c2ncn(C(C)C)c2c1 (stereo unspecified) | - | . | - | - | -
CCC(CO)Oc1cc(NC(=O)c2ccc(OC)cc2)c2ncn(C(C)C)c2c1 (stereo unspecified) | - | . | ? | 18µM | -
C#CCOc1c(Br)cc(/C=N/O)cc1OCC | - | - | 29µM | - | -
CCN1CCN(C(=O)/C=C/c2ccc(C)cc2)CC1 | - | - | - | - | -
COC(=O)[C@]1(Cc2ccccc2)N[C@H](CN(C)C(=O)Nc2ccc(C(F)(F)F)cc2)[C@@H]2C(=O)N(C)C(=O)[C@@H]21 | - | . | ? | 12µM | -
COC(=O)[C@]1(Cc2ccccc2)N[C@H](CN(C)C(=O)Nc2ccc(Cl)cc2)[C@@H]2C(=O)N(Cc3ccccc3)C(=O)[C@@H]21 | - | . | ? | 21µM | -
CC[C@@]1(C(=O)OC)N[C@H](CN(C)C(=O)Nc2ccc(C)cc2)[C@@H]2C(=O)N(Cc3ccccc3)C(=O)[C@@H]21 | - | . | ? | 29µM | -
COC(=O)[C@]1(Cc2ccccc2)N[C@H](CN(C)C(=O)Nc2ccc(F)cc2)[C@@H]2C(=O)N(Cc3ccccc3)C(=O)[C@@H]21 | - | . | 15µM | ? | -
O=C(NCc1ccc(F)cc1)c1cnc(Cl)c(Cl)c1 | - | - | ? | ? | -[0.0935 µM]

Screening data deposited in PubChem by National Center for Advancing Translational Sciences (NCATS).
